The other results are listed elsewhere or left out.
What follows are substances tested against Obg-like ATPase 1 (UniProt Q9NTK5) (assay: cross-link between two proteins; cross-linking mass spectrometry).

Listed as a hit, yes:
U2 small nuclear ribonucleoprotein A', P09661
Alpha-internexin, Q16352
Heterogeneous nuclear ribonucleoprotein U, Q00839
Neuromodulin, P17677

— article PMC9174471
